Data published in patent US20160032347A1, “NOVEL METHOD AND DEVICE FOR WHOLE-CELL BACTERIAL BIO-CAPACITOR CHIP FOR DETECTING CELLULAR STRESS INDUCED BY TOXIC CHEMICALS” (Sabanci Universitesi, priority 2011, published 2016).
Like-named read-outs stand apart in the source and are kept apart here.

Test system: E. coli cells

Row | SMILES | change in capacitance response (294 mM (1%), irrespective of exposure time (1 h, 3 h)) | capacitance response (588 mM (2%), 3 h exposure) | capacitance response (882 mM (3%), 3 h exposure) | response at initial 1 h exposure (FIG. 11) (350 MHz) | concentration toxic to cells (oxidative stress) (3 h exposure, 350 MHz, 882 mM = 3%) | concentration at which the capacitance response declined due to oxidative toxicity in cells (higher level, 882 mM = 3%) | concentration at which the E. coli biochip exhibited adaptive responses (oxidative stress, lower concentrations) | severity of effect on cells compared with the other model chemicals (350 MHz, 1 and 3 h) | concentration above which salt stress is induced (capacitance tends to decrease) (3 h exposure, 342 mM = 2%) | concentrations at which cells were not affected by salt stress (3 h exposure, 1-2%) | concentration giving mild adaptive responses (initial 1 h of treatment, 0-3%) | concentration at which cells tend to experience salt stress (initial 1 h of treatment, 684 mM = 4%) | concentration levels by which E. coli cells were not severely affected (cells resist salt stress) (salt stress, 513-684 mM = 3-4%)
1 | OO [H2O2, hydrogen peroxide] | negligible change in capacitance response | higher capacitance responses | considerably reduced capacitance responses | adaptive responses | 882000 µM | 882000 µM | < 2% |  |  |  |  |  | 
2 | [Cl-].[Na+] [NaCl, sodium chloride] |  |  |  | increase in capacitance |  |  |  | not severely affected | above 342 mM | 171000 to 342000 µM | 0 to 5.13e+08 nM | 684000 µM | 513000 to 684000 µM
